# Ab-14 heavy chain CDR variants: yeast mating affinities

Source: Engelhart et al. 2022 (doi:10.1038/s41597-022-01779-4), MIT Lincoln Laboratory and A-Alpha Bio; data file from the FLAb repository.

Target: peptide PDVDLGDISGINAS, taken from heptad repeat 2 (HR2) of SARS-CoV-2 spike.

Ab-14 is the parent antibody, in scFv form: VH, then three GGGGS repeats, then VL. The light chain is unchanged in all variants.
VH: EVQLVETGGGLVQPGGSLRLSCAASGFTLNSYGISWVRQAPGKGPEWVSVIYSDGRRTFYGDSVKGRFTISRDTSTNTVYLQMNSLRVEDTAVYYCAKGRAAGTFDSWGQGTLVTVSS
VL: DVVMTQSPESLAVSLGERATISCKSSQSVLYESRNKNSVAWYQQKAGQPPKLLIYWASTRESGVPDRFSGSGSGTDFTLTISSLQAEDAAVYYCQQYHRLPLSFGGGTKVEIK

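The starting antibody came from a phage panning campaign against this peptide. Variants in AAYL49 differ from the parent at up to three CDR positions; double and triple changes were sampled at random. The assay is AlphaSeq: two haploid yeast populations carry antibody and antigen on their surface. Binding brings cells together so that they mate, and sequencing counts the barcode pairs among the diploids. A regression on co-assayed BCL2-family reference pairs converts the normalised counts of each replicate to an apparent Kd. The assay was run in three technical replicates.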

Variants are written as CDR1, CDR2 and CDR3 of the heavy chain (limits as in the source). Parent: GFTLNSYGIS, VIYSDGRRTFYGDSVK, GRAAGTFDS. Affinities are written as log10 Kd with Kd in nM; a lower number is a better binder. Averages over replicates are reported, and they cover detected replicates only. A pair that was not seen in any replicate is written "nd"; this usually means weak binding, but a binder can also be missed. Parent in this assay: reference entry 0.65, copy in this library 4.11 (one replicate of three). As a blank, each scFv also met three strains without target: over library AAYL49, 15% of these pairings were detected, typically at 4.06 and seldom below 2.83. For each scFv, signals with the empty controls are counted beside the result.

4.05 (2 of 3 replicates; controls 5 of 9): GFTLVSYGIS / VIYSDCRRTFLGDSVK / GRAAGTFDS.
nd (0 of 3 replicates; controls 1 of 9): GFTLNSYGIS / VIVSDGRRTFGGDSVK / GRAAGTVDS.
5.16 (1 of 3 replicates; controls 3 of 9): GFTLNSFGIS / VIYSAGRRTFYGDSVK / GRAAGTFDT.
2.92 (1 of 3 replicates; controls 2 of 9): GFTLNSVGIS / VIYSDGRRTFYRDSVK / GRASGTFDS.
4.36 (2 of 3 replicates; controls 3 of 9): GFTLNSYGIS / VIYSDGRREFYGDSVH / PRAAGTFDS.
2.44 (3 of 3 replicates; controls 3 of 9): GFTLNSYGVS / VIYSDGRRTFYGDSVK / YPAAGTFDS.
nd (0 of 3 replicates; controls 0 of 9): GFTLISYGIS / WIYSDGRRTFYGDSVK / GRAAGTFDE.
2.33 (1 of 3 replicates; controls 1 of 9): GFTQFSYGIS / YIYSDGRRTFYGDSVK / GRAAGTFDS.
nd (0 of 3 replicates; controls 2 of 9): GFTLNSYGIA / VIYCFGRRTFYGDSVK / GRAAGTFDS.
nd (0 of 3 replicates; controls 0 of 9): GFTNNCYGIS / VIYSCGRRTFYGDSVK / GRAAGTFDS.
4.35 (1 of 3 replicates; controls 5 of 9): GFTLNSYGIS / VIYSDGRRTFHGDSVA / GRAAGTFDH.
4.04 (1 of 3 replicates; controls 2 of 9): GFTLNSYGIS / RIYSDNRRTFYGDSVK / GRAAGTFTS.
nd (0 of 3 replicates; controls 0 of 9): GFTLNSYGIS / VIYSDGRMTFYGDIVK / GRAAGTMDS.
5.71 (2 of 3 replicates; controls 4 of 9): GFTLNMDGIS / VIYSDGRRTFYGDSVK / GRAAGTFDS.
nd (0 of 3 replicates; controls 3 of 9): GFTLNSYGIS / VIYSDGRRTFGGDSMK / GRAHGTFDS.
3.17 (1 of 3 replicates; controls 1 of 9): GFTLNSYGIS / VIYWDGRRTFYGDSVK / GRAWGRFDS.
4.55 (1 of 3 replicates; controls 0 of 9): GFTLNYYGIS / VGYSDGRRTFLGDSVK / GRAAGTFDS.
nd (0 of 3 replicates; controls 0 of 9): SFTLNSYGIS / VIYSDGMRTFYGDSVK / GRAAGTDDS.
nd (0 of 3 replicates; controls 0 of 9): GFTLNSYGIS / VGMSDGRRTFEGDSVK / GRAAGTFDS.
nd (0 of 3 replicates; controls 0 of 9): GFTLNRYGIS / VIYSDGRRTFYGDSVK / GRKRGTFDS.
2.43 (3 of 3 replicates; controls 1 of 9): GFTLNSYGIS / VIYSDGRRTFYGDSVK / GVHAGTYDS.
nd (0 of 3 replicates; controls 0 of 9): GFTLNSYGIS / VIYEDGRNTFYGDSVP / GRAAGTFDS.
4.13 (1 of 3 replicates; controls 2 of 9): GFTLNSYGTN / VIYSDGRRTFYGCSVK / GRAAGTFDS.
nd (0 of 3 replicates; controls 4 of 9): RFTLNSYGIS / VIYSDWRRTFYGDSVK / GRADGTFDS.
nd (0 of 3 replicates; controls 0 of 9): RFTLNSYGIS / AIYSDGRRTFMGDSVK / GRAAGTFDS.
3.90 (1 of 3 replicates; controls 1 of 9): GFTLNSYGIF / VIYSDGRRTFYGDSVK / GREPGTFDS.
3.79 (1 of 3 replicates; controls 1 of 9): GFTLNSYGGS / VIPSDGRWTFYGDSVK / GRAAGTFDS.
2.19 (3 of 3 replicates; controls 0 of 9): GFTLNSYGIS / VIYFDGKRTQYGDSVK / GRAAGTFDS.
nd (0 of 3 replicates; controls 0 of 9): GFTLNSYCIS / VIYSDGRRTFYTDSVK / GRAARTFDS.
nd (0 of 3 replicates; controls 1 of 9): GFTLNSYGIS / VIYSDGRRTEEGDSVK / GRAAGTFES.
nd (0 of 3 replicates; controls 1 of 9): GFTLNSYGIS / VCYSCGRRTFYGDSVK / GRAAGMFDS.
nd (0 of 3 replicates; controls 0 of 9): GFTLVSYGIS / VIYSDGRRTFYGDSVK / GCAAWTFDS.
3.76 (2 of 3 replicates; controls 0 of 9): GFTLNSYKIS / VIYLDGRRTFYGDSVK / GRAFGTFDS.

Again, the first 4 entries without any signal:

Variant GFTLNSYGIS / VIVSDGRRTFGGDSVK / GRAAGTVDS showed nd (0 of 3 replicates; controls 1 of 9).
Variant GFTLISYGIS / WIYSDGRRTFYGDSVK / GRAAGTFDE showed nd (0 of 3 replicates; controls 0 of 9).
Variant GFTLNSYGIA / VIYCFGRRTFYGDSVK / GRAAGTFDS showed nd (0 of 3 replicates; controls 2 of 9).
Variant GFTNNCYGIS / VIYSCGRRTFYGDSVK / GRAAGTFDS showed nd (0 of 3 replicates; controls 0 of 9).